Patent publication US20240423977A1, “FIVE-MEMBERED RING-FUSED SIX-MEMBERED RING COMPOUND, PREPARATION METHOD THEREFOR, AND PHARMACEUTICAL COMPOSITION AND USE THEREOF” (HANGZHOU POLYMED BIOPHARMACEUTICALS, INC., priority 2022, published 2024)
Read-outs that look alike come from different tables or passages of the source.

The chains behind the UniProt entries cited, without tags or fusion partners.
UniProt Q9NWZ3, whole entry: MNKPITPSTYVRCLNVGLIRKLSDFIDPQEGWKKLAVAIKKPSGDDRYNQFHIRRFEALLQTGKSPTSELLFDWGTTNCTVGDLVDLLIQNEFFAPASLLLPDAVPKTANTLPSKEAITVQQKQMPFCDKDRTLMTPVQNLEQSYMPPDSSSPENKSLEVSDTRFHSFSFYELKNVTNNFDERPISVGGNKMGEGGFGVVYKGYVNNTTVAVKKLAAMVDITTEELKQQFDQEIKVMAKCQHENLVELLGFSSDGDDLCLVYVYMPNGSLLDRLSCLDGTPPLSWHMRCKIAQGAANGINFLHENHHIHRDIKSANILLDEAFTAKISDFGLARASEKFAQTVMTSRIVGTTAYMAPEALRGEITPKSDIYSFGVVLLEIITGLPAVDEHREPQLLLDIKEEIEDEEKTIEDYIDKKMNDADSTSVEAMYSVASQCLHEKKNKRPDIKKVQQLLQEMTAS

Assays:
[1] = biological target: IRAK4 protein in THP-1 cells (Homo sapiens (Human), UniProt Q9NWZ3); experiment: PROTAC-induced IRAK4 protein degradation in THP-1 cells (Western Blot); conditions: for DC50: read-out: IRAK4 DC50, concentration that degraded 50% of IRAK4, Western blotting, 24 hours after administration; for IRAK4 degradation rate 24 hours after administration of the compounds with a concentration of 1 μM: Western blotting
Method: 2.1 Based on the experimental method of Western Blot, specific antibodies were used to stain the THP-1 cell samples treated by gel electrophoresis, and the degrading activity of the compounds on the IRAK4 protein in THP-1 cells was determined by analyzing the position and depth of staining. The concentrations of compound for the detection included 0 μM, 0.3 μM, 1 μM and 3 μM, and the cells were treated by the compound for 8 hours, 16 hours, 24 hours, and 48 hours. Glyceraldehyde-3-phosphate dehydrogenase (GAPDH) is an internal reference protein in this experiment.
Electrophoresis buffer: 50 mL MOPS SDS Running Buffer (20×) and 50 mL 20×TBS Tween-20 buffer were diluted with deionized water to 1 L as the electrophoresis buffer;
5% skim milk (w/v): 2.5 g skim milk was diluted with 50 mL 1×TBS Tween-20 buffer to prepare 5% skim milk;
5% BSA (w/v): 2.5 g BSA was diluted with 50 mL 1×TBS Tween-20 buffer to prepare 5% BSA;
Anti-IRAK4 antibody was diluted with 5% BSA at 1:1000 into a primary antibody working solution;
Goat Anti-Rabbit IgG H&L (HRP) was diluted with 5% BSA at 1:2000 into a second antibody working solution; and
Goat Anti-Mouse IgG H&L (HRP) was diluted with 5% BSA at 1:2000 into a second antibody working solution.
THP-1 cells were plated in a 6-well plate at a density of 1.5×10^6 cells per ml and incubated for 2 hours in a cell culture incubator under 37° C. and 5% CO2. The compound was diluted with DMSO to 0.6 mM, 0.2 mM and 0.06 mM respectively. 10 μL of compound solution was added to the corresponding wells, and continued to incubate in the incubator for 16 hours, 24 hours and 48 hours respectively. The compound-treated THP-1 cells in the well were collected, added with 120 μL of RIPA lysate containing protease inhibitor, Phosphatase Inhibitor Cocktail 2 and Phosphatase Inhibitor Cocktail 3, lysed on wet ice for 30 minutes, and then the cells lysate was centrifuged at a high speed and a low temperature for 5 minutes to collect the supernatant. The protein concentration of the cell sample was determined according to the instructions in the Pierce™ BCA Protein Assay Kit.
The concentration of the sample was adjusted to be consistent using lysis buffer and NuPAGE® LDS sample buffer containing 1M DTT. The samples were heated at 95° C. for 5 minutes and centrifuged at a low temperature and at a high speed. 20 μL of the prepared protein sample and 4 μL of PageRuler Prestained Protein Ladder were added into the gel well for running at 80V voltage for 0.5 hours, then the voltage was adjusted to 120V for further running for 1.5 hours. The gel was removed and the proteins in the gel were transferred to the IBlotTM 2 transfer membrane set at 20V. After successful transfer, bands at 65 kDa-40 kDa and 40 kDa-30 kDa were cut respectively. The membranes were blocked with 5% skim milk for 1 hour at room temperature. The membranes were washed three times with 1× concentration of TBST, then incubated with IRAK4 antibody working solution overnight at 4° C. The IRAK4 antibody working solution was discarded, and the membranes were washed three times with 1×concentration of TBST, and incubated with Goat Anti-Rabbit IgG H&L (HRP) working solution and Goat Anti-Mouse IgG H&L (HRP) working solution at room temperature. After 1 hour of incubation, the antibody working solution was discarded and the membranes were washed three times with 1× concentration of TBST. According to the instructions of the kit SuperSignal™ West Femto Maximum Sensitivity Substrate, the reagents in the kit were mixed in equal volume proportions to prepare a luminescent liquid mixture. The membranes were incubated for 1 minute, then removed for exposure.
The results of Western blotting 24 hours after administration of the compounds with a concentration of 1 μM were shown in Table 3: […]

kinase IRAK4 = kinase IRAK4 (Homo sapiens (Human), UniProt Q9NWZ3); experiment: Inhibitory effects of compounds on kinase activity (fluorescence microfluidic mobility detection, competitive with ATP); conditions: read-out: IRAK4 IC50, IRAK4 6 nM, ATP 10 μM
Method: Based on an experimental method of fluorescence microfluidic mobility detection, an IC50 value of competitive binding of kinase IRAK4 to ATP by the compounds was determined. The initial detection concentration of the compounds was 10 μM, diluted 4-fold gradient down to […], and tested in duplicate. Among them, commercial staurosporine was the standard control substance in this experiment.
1) IRAK4 kinase was dissolved in kinase buffer (50 mM HEPES pH 7.5, 10 mM MgCl2, 2 mM DTT and 0.01% Brij-35) to a final concentration of 6 nM.
2) The substrate peptide FAM-P8 and ATP were dissolved in the above kinase buffer. The final concentrations of the IRAK4 substrate peptide FAM-P8 and ATP were 3 μM and 10 μM respectively.
3) Dilution of the compounds: the compound was first diluted to 50 μM, and then diluted down with a 4-fold gradient of DMSO. The solution without the compound and kinase is used as a blank control, corresponding to the “minimum value” shown below; and the solution without the compound but with kinase, adenosine 5′-triphosphate disodium salt hydrate, DMSO and buffer is used as a positive control, corresponding to the “maximum value” shown below. 4) Kinase reaction and termination: 10 μL of kinase buffer was added to a 384-well plate containing 5 μL of the compound to be tested, and incubated at room temperature for 10 minutes. Another 10 μL of buffer containing the substrate peptide and adenosine 5′-triphosphate disodium salt hydrate was added to the 384-well plate. After incubation at 28° C. for one hour, 25 μL stop solution (100 mM HEPES pH 7.5, 50 mM EDTA, 0.2% Coating Reagent #3 and 0.015% Brij-35) was added to each well to terminate the reaction.
5) Data reading: the CaliperEZ Reader II instrument was used to read the conversion rate data. Conditions: downstream voltage −500V, upstream voltage −2250V, base pressure −0.5 PSI, and screening pressure −1.2 PSI.
6) Data calculation: the conversion rate data was copied from CaliperEZ Reader II and converted into inhibition rate data. The calculation formula is as follows: […]

SMILES | DC50 [1] | IC50 (kinase IRAK4; Table 2, substrate FAM-P8 3 μM) | IRAK4 degradation rate 24 hours after administration of the compounds with a concentration of 1 μM [1] | IC50 (kinase IRAK4; Table 1, class symbols)
[2H]C([2H])([2H])C(O)(c1cc2nn(C3CC4(CCN(C(=O)C5CCN(c6ccc7c(c6)C(=O)N(C6CCC(=O)NC6=O)C7=O)CC5)CC4)C3)cc2cc1NC(=O)c1cccc(C(F)(F)F)n1)C([2H])([2H])[2H] (stereo not shown) | 7.2 nM | 10.2 nM |  | 
COc1cc2nn(C3CCN(CC(=O)N4CCN(c5ccc6c(c5)C(=O)N(C5CCC(=O)NC5=O)C6=O)CC4)CC3)cc2cc1NC(=O)c1cccc(C(F)(F)F)n1 (stereo not shown) | 4.33 nM | 16.4 nM | 75~100% | < 100 nM
COc1cc2c(cc1NC(=O)c1cccc(C(F)(F)F)n1)CN(C1CC3(CCN(C(=O)C4CCN(c5ccc6c(c5)C(=O)N(C5CCC(=O)NC5=O)C6=O)CC4)CC3)C1)C2=O (stereo not shown) | 26.2 nM |  |  | 
COc1cc2nn(C3CC4(CCN(C(=O)C5CCN(c6ccc7c(c6)C(=O)N(C6CCC(=O)NC6=O)C7=O)CC5)CC4)C3)cc2cc1NC(=O)c1cccc(C(F)(F)F)n1 (single isomer, unassigned) |  |  | 75~100% | 
[2H]C([2H])([2H])Oc1cc2nn(C3CC4(CCN(C(=O)C5CCN(c6ccc7c(c6)C(=O)N(C6CCC(=O)NC6=O)C7=O)CC5)CC4)C3)cc2cc1NC(=O)c1cccc(C(F)(F)F)n1 (stereo not shown) | 6.6 nM |  |  | 
O=C1CCC(N2C(=O)c3ccc(N4CCC(C(=O)N5CCC6(CC5)CN(c5nc7nc(N8CC[C@@H](O)C8)c(NC(=O)c8cccc(C(F)(F)F)n8)cc7o5)C6)CC4)cc3C2=O)C(=O)N1 (stereo partly shown) | > 1000 nM |  |  | 
